Consider one molecule from ChEMBL document CHEMBL4321789, “Hydroxyl Groups in Synthetic and Natural-Product-Derived Therapeutics: A Perspective on a Common Functional Group” (J Med Chem, 2019).

This assay has as its target Type-1 angiotensin II receptor (Homo sapiens, UniProt P30556). In words: Inhibition of ATR1 (unknown origin).

By IC50 is commonly meant the concentration that gives 50% inhibition. A low value points to greater potency in that assay. `CCCCc1nc(Cl)c(C(=O)O)n1Cc1ccc(-c2ccccc2-c2nn[nH]n2)cc1` [CARBOXYLIC ACID METABOLITE]: the concentration for half-maximal inhibition (IC50) amounted to 2 nM.
